Apparent affinities of Ab-95 variants for a coronavirus HR2 peptide

Binding partner: SARS-CoV-2 spike HR2 peptide, sequence PDVDLGDISGINAS.

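AAYL52 was designed without a model: most single CDR substitutions and a random sample of double and triple ones. The scFvs were displayed on barcoded MATa yeast, the peptide on MATalpha yeast. After mating in shaken culture at 30 °C for 16 h, diploids were selected and their barcode pairs sequenced. The ratio of observed to expected reads was calibrated, replicate by replicate, on BCL2-family standards whose Kd was known from biolayer interferometry. Mating was done three times.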

Parent scFv Ab-95: VH joined to VL by the linker GGGGSGGGGSGGGGS. Changes lie in the light chain CDRs alone.
VH: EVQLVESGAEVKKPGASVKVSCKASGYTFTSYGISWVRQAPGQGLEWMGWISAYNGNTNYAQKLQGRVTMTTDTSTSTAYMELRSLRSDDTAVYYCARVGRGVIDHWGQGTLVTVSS
VL: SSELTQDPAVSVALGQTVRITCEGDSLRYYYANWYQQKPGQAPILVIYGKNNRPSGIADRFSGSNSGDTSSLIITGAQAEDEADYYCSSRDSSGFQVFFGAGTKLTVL

Substitutions are numbered in sequence along the VL above, starting at 1 (not Kabat).
Every variant below is changed at N33 of the VL (sequential numbering).
Values are log10 of the apparent Kd in nM; lower means stronger binding.
Replicates are averaged; those with no signal do not enter the mean.
Where no diploid with the target was found in any replicate, the entry reads "nd": below detection, most likely a poor binder, though not proof of it.
In this assay the parent's reference entry averaged 2.31; its copy inside this library read 2.25.
As a blank, each scFv also met three strains without target: over library AAYL52, 28% of these pairings were detected, typically at 3.91 and seldom below 2.90. The control count says in how many pairings with the empty strains this scFv gave a signal.

* Y31N+N33P+K50R = 3.14 (3 of 3 replicates; controls 4 of 9)
* E23R+N33M = 3.14 (3 of 3 replicates; controls 4 of 9)
* N33I+G94A = 2.75 (3 of 3 replicates; controls 2 of 9)
* E23S+Y29H+N33K = 3.98 (2 of 3 replicates; controls 3 of 9)
* A32K+N33R+S92H = nd (0 of 3 replicates; controls 2 of 9)
* N33L+N52Y+D91K = nd (0 of 3 replicates; controls 5 of 9)
* N33M = 3.08 (2 of 3 replicates; controls 3 of 9)
* N33G+S92Q+G94P = 4.69 (1 of 3 replicates; controls 3 of 9)
* R28H+N33H+S92C = 3.34 (2 of 3 replicates; controls 0 of 9)
* N33K+G49V = 4.62 (1 of 3 replicates; controls 6 of 9)
* R28N+N33D+S93H = nd (0 of 3 replicates; controls 0 of 9)
* N33P+G49N+S92D = 4.09 (2 of 3 replicates; controls 2 of 9)
* E23S+N33L+P54T = 4.06 (1 of 3 replicates; controls 4 of 9)
* N33M+F95W = 4.05 (1 of 3 replicates; controls 2 of 9)
* N33D = 3.35 (3 of 3 replicates; controls 1 of 9)
* A32N+N33P+K50I = 4.40 (1 of 3 replicates; controls 3 of 9)
* N33L+S89V+V97D = 3.55 (1 of 3 replicates; controls 4 of 9)
* R28N+Y29M+N33G = 4.11 (2 of 3 replicates; controls 3 of 9)
* N33V+K50C+S92C = 4.10 (2 of 3 replicates; controls 3 of 9)
* Y30G+N33W+N52C = 3.64 (2 of 3 replicates; controls 0 of 9)
* N33Q+N51T+S92R = 3.57 (2 of 3 replicates; controls 2 of 9)
* D25G+N33H+D91R = nd (0 of 3 replicates; controls 5 of 9)
* S26Y+R28M+N33W = 5.22 (2 of 3 replicates; controls 4 of 9)
* N33P+S89E+D91S = 4.52 (3 of 3 replicates; controls 3 of 9)
* E23V+N33A+G94S = 3.66 (3 of 3 replicates; controls 4 of 9)
* N33Q+N51E+S93P = 4.55 (3 of 3 replicates; controls 3 of 9)
* Y29T+N33H+R53Y = 4.55 (1 of 3 replicates; controls 4 of 9)
* N33P+F95Q = 3.51 (2 of 3 replicates; controls 6 of 9)
* A32P+N33V+S92A = 2.67 (3 of 3 replicates; controls 2 of 9)
* Y30W+N33Q+P54Q = nd (0 of 3 replicates; controls 0 of 9)
* N33L+S55W+D91A = 4.22 (2 of 3 replicates; controls 5 of 9)
* Y31P+N33H+F98M = 4.34 (2 of 3 replicates; controls 2 of 9)
* N33C = 2.36 (2 of 3 replicates; controls 2 of 9)
* Y29D+N33Y = 4.20 (2 of 3 replicates; controls 0 of 9)
* S26V+Y30P+N33L = 4.59 (2 of 3 replicates; controls 6 of 9)
* N33M+F98T = 3.89 (1 of 3 replicates; controls 4 of 9)
* N33L+S55H+S93V = 3.67 (1 of 3 replicates; controls 2 of 9)
* N33T+S88P = nd (0 of 3 replicates; controls 1 of 9)
* E23M+N33F+D91V = 4.67 (1 of 3 replicates; controls 5 of 9)
* N33M+S88L = 3.62 (3 of 3 replicates; controls 4 of 9)
* N33F+N51V+V97M = 3.19 (1 of 3 replicates; controls 3 of 9)
* N33A+S55L+S88T = 4.13 (1 of 3 replicates; controls 3 of 9)
* D25S+N33S+S92T = 3.57 (3 of 3 replicates; controls 2 of 9)
* N33R = 4.38 (3 of 3 replicates; controls 4 of 9)

Top 2 of the variants detected in all replicates, tightest first:

* A32P+N33V+S92A = 2.67 (3 of 3 replicates; controls 2 of 9)
* N33I+G94A = 2.75 (3 of 3 replicates; controls 2 of 9)

Source: Engelhart et al. 2022 (doi:10.1038/s41597-022-01779-4), MIT Lincoln Laboratory and A-Alpha Bio; data file from the FLAb repository.